Data as given in PubChem BioAssay AID540263 (National Center for Advancing Translational Sciences (NCATS), 2011).
About 100 (0.029%) of roughly 340,000 compounds were called active. Another 8% or so got no clear call; they are omitted. The sample as a whole holds a higher share of actives than the screen did. Unmarked numbers belong to inactive results. Calls follow the shape of the full dose curve. Where a SMILES comes first, the peptide text is derived from it. [ ]: non-standard residue; d: D form. ξ: configuration not given here. Ac5c = NC1(C(=O)O)CCCC1; ξS = NC(CO)C(=O)O
Also: nearly all actives have a fitted effect of over 15% in size.
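For inhibition of complex formation in this document: 0% = DMSO wells and 100% = buffer wells lacking importin beta.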
Potency is read from the fitted curve at half-maximal effect; tags tell the direction and shape of the fitted curve.

Sequences of proteins named here, by UniProt entry; tags and fusion partners are left off.
UniProt Q14974, whole entry, looked up: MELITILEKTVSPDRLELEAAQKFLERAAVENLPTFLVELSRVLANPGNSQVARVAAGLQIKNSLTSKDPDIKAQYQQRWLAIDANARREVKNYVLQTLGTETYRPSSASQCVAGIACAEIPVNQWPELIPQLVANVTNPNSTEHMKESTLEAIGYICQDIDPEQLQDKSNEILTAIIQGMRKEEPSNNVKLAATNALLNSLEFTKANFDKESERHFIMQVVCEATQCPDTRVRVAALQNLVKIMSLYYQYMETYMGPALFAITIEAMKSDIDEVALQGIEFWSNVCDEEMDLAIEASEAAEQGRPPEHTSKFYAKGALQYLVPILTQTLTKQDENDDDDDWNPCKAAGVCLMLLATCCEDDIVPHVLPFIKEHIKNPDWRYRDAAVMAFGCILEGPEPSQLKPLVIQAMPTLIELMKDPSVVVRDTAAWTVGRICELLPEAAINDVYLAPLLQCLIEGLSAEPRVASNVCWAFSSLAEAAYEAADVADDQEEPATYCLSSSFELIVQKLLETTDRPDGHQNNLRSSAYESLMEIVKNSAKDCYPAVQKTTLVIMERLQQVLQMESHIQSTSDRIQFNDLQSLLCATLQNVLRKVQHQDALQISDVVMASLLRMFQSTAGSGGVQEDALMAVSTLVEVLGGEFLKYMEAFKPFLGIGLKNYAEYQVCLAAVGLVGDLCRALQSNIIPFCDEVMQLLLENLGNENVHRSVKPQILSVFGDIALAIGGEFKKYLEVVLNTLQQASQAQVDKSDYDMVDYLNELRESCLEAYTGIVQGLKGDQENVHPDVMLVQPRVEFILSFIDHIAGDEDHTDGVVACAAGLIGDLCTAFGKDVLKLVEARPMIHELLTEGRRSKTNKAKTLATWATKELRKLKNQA

These molecules were tested against Importin subunit beta-1 (Homo sapiens) (UniProt Q14974) (assay: qHTS Assay for Inhibitors of Rango (Ran-regulated importin-beta cargo) - Importin beta complex formation). Details: Rango CFP/YFP FRET sensor + importin beta, 45 min; series mostly up to 92.2 µM; inhibition of complex formation: at the top concentration.
From the text: NIH Molecular Libraries Probe Production Centers Network [MLPCN] NIH Chemical Genomics Center [NCGC] MLPCN Grant: R03 MH090808-01A1 Assay Submitter (PI): Petr Kalab NCGC Assay Overview: The small GTPase Ran regulates transport of macromolecules between the nucleus and the cytoplasm (nuclear transport) and has important functions in mitotic spindle assembly, nuclear envelope (NE) formation and nuclear pore complex (NPC) assembly. RanGTP gradient is thought to promote spindle assembly by providing a spatial clue to microtubule nucleation and Aurora A activation. Because the localized release and binding of importin alpha cargo relays this spatial clue to SAFs, inhibitors of the Rango - importin beta complex can then be used in further understanding their role in cell cycle specifically in mitosis progression. […] Activation of Aurora A has been linked to different types of cancer and a number of Aurora kinase inhibitors are being developed as potential canter therapeutics therefore, identified inhibitors of this complex could be developed into potential anti-mitotic probes for cancer treatment. Purified recombinant proteins Rango and importin beta were provided by the assay submitter. The assay used a fluorescence resonance energy transfer (FRET) Rango biosensor that contains the IBB of human snurportin 1 flanked by yellow fluorescent protein (EYFP) at the amino terminus and cerulean CFP10 at the carboxy terminus. […] Inhibitors will therefore be identified based on the ability to interfere with the FRET signal decrease. DMSO treated and no importin beta (buffer only) wells were used as negative and positive controls respectively. FRET readings were obtained at two time points. FRET reading prior to importin beta addition (pre-read) were used flag potential compound interference; FRET reading after importin beta addition (post-read) were used to identify inhibitors using the FRET ratio parameter.
NCGC Assay Protocol Summary: Two and a half uL/well of Rango-buffer solution (50 nM Rango, 1x PBS, 1mM DTT, 0.02% Tween-20, 0.1% BSA final concentrations) was dispensed into 1536-well assay plates (Greiner, solid black medium-binding plates) with Aurora Discovery BioRAPTR Flying Reagent Dispenser (FRD; Beckton-Dickenson). Compound solution (23 nL) was transferred to the assay plate using Kalypsys pin tool equipped with a 1536-pin tool and incubated at room temperature for 5 min followed by a FRET pre-read using the PerkinElmer Envision plate reader. Two and a half uL/well of Importin beta - buffer solution (0.125 microM importin beta, 1x PBS, 1mM DTT, 0.02% Tween-20, 0.1% BSA final concentrations) were then added and incubated at room temperature giving a final reaction volume of 5uL. After 45min FRET post-read was obtained via the Envision plate reader using the same optics and settings as the pre-read (CFP/YFP optimized dual optical module D450/D505; excitation mirror CFP 430/24 nm; and emission filters CFP 486/10 nm and YFP 530/10 nm).
With `COc1cccc(-n2nc(C(=O)N3CCN(Cc4ccccc4)CC3)c3ccccc3c2=O)c1` the “inhibition of complex formation” value was 0.18%. `CCOC(=O)N1CCN(Cc2nc3cc(NC(C)=O)ccc3n2C)CC1` was tested, and the “inhibition of complex formation” value was 1.49%. With `CCOC(=O)N1CCN(Cc2nc3ccc([N+](=O)[O-])cc3c(=O)n2-c2cccc(OC)c2)CC1` the Potency was 65.1 µM (active). With `C=CCn1c(=O)n(C)c2c(=O)n(C)c(=O)n(C)c21` the “inhibition of complex formation” value was 0.323%. `CCc1nnc(NC(=O)c2cc(S(=O)(=O)N3CCN(CC)CC3)ccc2Cl)s1` was tested, and the “inhibition of complex formation” value was -0.0496%. With `O=[N+]([O-])c1ccc(N2CCOCC2)cc1` the “inhibition of complex formation” value was -0.532%. With `COC1=CC(=O)OC(c2ccc(OC)cc2)C1` (centres undefined) the “inhibition of complex formation” value was 0.94%. With `C[C@@H]1NS(=O)(=O)c2cc(Cl)ccc2O[C@@H]1c1ccccc1` the “inhibition of complex formation” value was 0.256%. With `Cc1onc(-c2c(F)cccc2Cl)c1C(=O)Nc1cccc(S(=O)(=O)N2CCCCC2)c1` the “inhibition of complex formation” value was -3.64%. In the case of `COc1cc(O)c2c(=O)c3c(O)c(O)ccc3oc2c1OC`, the “inhibition of complex formation” value is reported as 2.1%. `COc1ccccc1C(=O)c1ccccc1C(=O)c1ccccc1` was tested, and the “inhibition of complex formation” value was 0.498%. In the case of `CCc1c(Nc2ccccc2Cl)nc(N)[nH]c1=O`, the “inhibition of complex formation” value is reported as -2.61%. For `O=C1NCC(c2ccccc2)(c2ccccc2)C(=O)N1`, the “inhibition of complex formation” value was -0.926%. With `CC(=O)OC1CCC2(C)C(=CCC3C4CC(=O)N(O)C(=O)C4(C)CCC32)C1` (centres undefined) the “inhibition of complex formation” value was 8.37%. For `O=c1[nH]c(=S)[nH]c(O)c1/C=C1\C=Nc2ccccc21`, the “inhibition of complex formation” value was -4.21%. In the case of `CN1CCC(N(C)C(=O)c2ccc(Cl)c(S(=O)(=O)Nc3ccc(Cl)cc3)c2)CC1`, the “inhibition of complex formation” value is reported as 0.197%. `O=C1CC(C(=O)O)NC(=S)N1` (centres undefined) was tested, and the “inhibition of complex formation” value was -2.32%. With `Cc1ccc(C)c(S(=O)(=O)N(C)c2ccc(OC(=O)C3CCN(C(=O)c4ccc(F)cc4)CC3)cc2)c1` the “inhibition of complex formation” value was 0.0057%. `COc1ccc(C(=O)Nc2cccc(/C=C(/CCC(=O)O)c3nc4ccccc4s3)c2)cc1` was tested, and the “inhibition of complex formation” value was 1.46%. For `O=C1COc2c1ccc(O)c2O`, the “inhibition of complex formation” value was 7.6%. For `COc1ccc(-c2nnc(-c3ccc4ccccc4c3)o2)cc1`, the “inhibition of complex formation” value was 0.838%. In the case of `CC(=O)c1cccc(-c2ccc(CN3C(CC(C)C)C(=O)N(Cc4cn(CC5CCCCC5)nn4)CCS3(=O)=O)cc2)c1` (centres undefined), the “inhibition of complex formation” value is reported as 0.492%. With `Cn1c(N)cc(=O)n(C)c1=S` the “inhibition of complex formation” value was 1.95%. In the case of `Nc1ccc2[nH]c(=S)sc2c1`, the “inhibition of complex formation” value is reported as 1.37%. `Cc1nc(N)sc1-c1ccccc1` was tested, and the “inhibition of complex formation” value was 0.85%. With `COc1ccc(Nc2ccc3ccccc3c2)cc1` the “inhibition of complex formation” value was -0.857%. For `O=C(CCC(=O)N1CCN(S(=O)(=O)c2ccc(Cl)cc2)CC1)NCc1cccc(C(F)(F)F)c1`, the “inhibition of complex formation” value was -4.66%. In the case of `CCOC(=O)C(CO)NC(=O)C1(NC(C)=O)CCCC1` (centres undefined) (Ac-[Ac5c]-[ξS]-OEt), the “inhibition of complex formation” value is reported as 3.58%. In the case of `CCN1CCC(O)(/C=C/c2ccc(C)cc2)C(C(=O)/C=C/c2ccc(C)cc2)C1` (centres undefined), the “inhibition of complex formation” value is reported as 9.28%. With `COC(=O)Cc1c(-c2[nH]c3ccccc3c2CC(=O)OC)[nH]c2ccccc12` the “inhibition of complex formation” value was -5.91%. With `CC1(C)C(=O)CCC2(C)C1=CCC1C2C(=O)CC2(C)C1CCC2(O)C(=O)CO` (centres undefined) the “inhibition of complex formation” value was 2.32%. For `C#CCOCCOCCOCCNc1nc(N2CCOCC2)nc(N2CCN(C(=O)[C@H](Cc3ccc(O)cc3)n3cc(CCO)nn3)CC2)n1`, the “inhibition of complex formation” value was -0.365%. In the case of `CSc1ncnc2c1ncn2CC(=O)C1CCC2C3CCC4=CC(=O)CCC4(C)C3CCC12C` (centres undefined), the “inhibition of complex formation” value is reported as -1.96%. For `COc1ccc(/C=C/C(=O)OCC(=O)N2CCN(S(=O)(=O)c3ccc(C)cc3C)CC2)cc1OC`, the “inhibition of complex formation” value was -0.829%. For `CN(C)c1ccc(CSc2ccccc2)cc1`, the “inhibition of complex formation” value was -3.62%. In the case of `Cc1cccc(CC2(O)C(=O)Nc3ccccc32)n1` (centres undefined), the “inhibition of complex formation” value is reported as -4.17%. With `O=C(Cc1ccc(NC(=O)C2CCCN(C(=O)CCc3ccccc3)C2)cc1)Nc1ccc(C(=O)N2CCOCC2)cc1` (centres undefined) the “inhibition of complex formation” value was 5.08%. In the case of `O=C(Cc1ccc(S(=O)(=O)N2CCOCC2)s1)Nc1ccc(Br)c(C(F)(F)F)c1`, the “inhibition of complex formation” value is reported as -0.992%. With `CN(CCc1ccccc1)C(=O)c1cccc(NC(=O)Cc2cccc(NC(=O)C3CCCN(C(=O)CCc4ccccc4)C3)c2)c1` (centres undefined) the “inhibition of complex formation” value was -1.7%. In the case of `COc1ccc(CNCCCNCc2ccc(OC)c(OC)c2)cc1OC`, the “inhibition of complex formation” value is reported as 3.08%. For `CCOc1cc(C=NNC(=O)CCCC(=O)NN=Cc2ccc(O)c(OCC)c2)ccc1O`, the “inhibition of complex formation” value was 0.872%. `COc1ccc(Br)cc1/C=N/Nc1ccc(S(=O)(=O)Nc2ccccc2C(=O)O)cc1[N+](=O)[O-]` was tested, and the “inhibition of complex formation” value was 7.77%. `O=C(NN=Cc1ccccc1O)NN=Cc1ccccc1O` was tested, and the “inhibition of complex formation” value was -2.35%. With `O=C(NNC(=O)c1ccccc1O)c1ccccc1O` the “inhibition of complex formation” value was 3.01%. With `CCCN(CCC)S(=O)(=O)c1cc2c(cc1Br)CCN2C(=O)CC` the “inhibition of complex formation” value was 7.53%. `CCOc1ccccc1NC(=S)C(=C([O-])c1ccc2c(c1)OCCO2)[n+]1ccc(CC)cc1` was tested, and the “inhibition of complex formation” value was -0.299%. For `COc1ccc(N=C2C=CC(=O)O2)cc1`, the “inhibition of complex formation” value was -0.507%. `Cc1cccc(C=CC(=O)c2ccc(Cl)cc2)c1` was tested, and the “inhibition of complex formation” value was -1%. For `COc1ccc(CCNC(=O)COc2cc(C)cc3oc(=O)c(C)c(C)c23)cc1OC`, the “inhibition of complex formation” value was 4.97%.
